The record followed here is US10183009B2, “Therapeutic compounds and uses thereof” (GENENTECH, INC., priority 2014, dated 2019).

Protein sequences, listed by entry. Tags and fused reporters are not part of them. Residues count along the entry.
UniProt P21675, 1525-1656 limits assumed: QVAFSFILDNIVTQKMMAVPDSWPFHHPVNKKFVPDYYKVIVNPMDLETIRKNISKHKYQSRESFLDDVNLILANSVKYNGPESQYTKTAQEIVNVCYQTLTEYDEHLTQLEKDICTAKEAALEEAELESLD

For assay [1], the target named is TAF1-BD2 (Homo sapiens (Human), UniProt P21675). Briefly: TAF1-BD2 TR-FRET Binding Assay. Particulars: Assay: TAF-1.
Assay [2] deals with BRD4(BD1) (Homo sapiens (Human), UniProt O60885). Briefly: BRD4 AlphaLisa Binding Assay.

SMILES strings stand for the structures. pIC50: −log10 of the molar value.

The molecule `COCCn1cc(-c2cccc(C(=O)N(C)C)c2)c2cc[nH]c2c1=O` [Example 14, 3-[6-(2-methoxyethyl)-7-oxo-1H-pyrrolo[2,3-c]pyridin-4-yl]-N,N-dimethyl-benzamide] showed a pIC50 in assay [1] of 5.70.
In assay [2], `CCCCn1cc(-c2cccc(C(=O)N(C)C)c2)c2cc[nH]c2c1=O` [Example 2, 3-(6-butyl-7-oxo-1H-pyrrolo[2,3-c]pyridin-4-yl)-N,N-dimethyl-benzamide] showed a pIC50 of 5.59.

In general, pIC50 refers to the negative decadic logarithm of the IC50, by convention in mol/L. Higher therefore signals a low IC50.
